The results in this text go back to patent US7217411B2, “CeSERT genes, proteins, and modulatory compounds” (Massachusetts Institute of Technology, priority 2000, dated 2007).

Assay [1] concerns the target T1, MOD-5 CeSERT (Caenorhabditis elegans, UniProt Q963F3).
T1 sequence (Q963F3 1-671): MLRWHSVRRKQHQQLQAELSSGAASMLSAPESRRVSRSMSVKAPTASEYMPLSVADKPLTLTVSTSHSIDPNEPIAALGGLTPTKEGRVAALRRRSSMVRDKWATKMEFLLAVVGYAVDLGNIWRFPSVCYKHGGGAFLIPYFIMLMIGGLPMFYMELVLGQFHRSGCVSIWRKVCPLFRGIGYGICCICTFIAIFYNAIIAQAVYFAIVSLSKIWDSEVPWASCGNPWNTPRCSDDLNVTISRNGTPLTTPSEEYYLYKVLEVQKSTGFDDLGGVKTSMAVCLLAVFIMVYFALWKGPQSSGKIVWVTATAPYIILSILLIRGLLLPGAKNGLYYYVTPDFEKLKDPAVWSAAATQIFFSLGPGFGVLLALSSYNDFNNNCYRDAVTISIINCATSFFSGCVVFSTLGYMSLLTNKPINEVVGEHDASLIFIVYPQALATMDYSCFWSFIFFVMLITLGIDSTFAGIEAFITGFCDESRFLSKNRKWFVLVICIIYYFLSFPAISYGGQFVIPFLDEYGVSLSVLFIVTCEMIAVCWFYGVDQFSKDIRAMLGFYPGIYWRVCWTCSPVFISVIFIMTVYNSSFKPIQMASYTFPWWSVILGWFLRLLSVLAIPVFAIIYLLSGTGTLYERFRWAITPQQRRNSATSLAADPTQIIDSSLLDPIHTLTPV
Kind of assay: cell-based.

The test system of assay [2] is C. elegans NSMs. Kind of assay: serotonin uptake in vivo, anti-serotonin staining of NSMs. To be noted: tph-1, then 2 mM 5-HT + fluoxetine 2 hours.
Assay [3] concerns C. elegans. Kind of assay: effects of high concentrations of fluoxetine on C. elegans (literature).
Assay [4] addresses T1, MOD-5 CeSERT. The assay can be described thus: MOD-5-mediated [^3H]serotonin uptake in HEK293 cell lines stably expressing MOD-5. The conditions noted are these: 50 μM radiolabeled neurotransmitter vs 1 μM [^3H]serotonin.

Usually Ki stands for a dissociation constant, usually derived from enzyme kinetics or from competition with a known ligand. High values mean lower affinity, low ones higher affinity.

Take `CN(C)CCCC1(c2ccc(F)cc2)OCc2cc(C#N)ccc21` (stereo not drawn) [citalopram]: the affinity in assay [1], expressed as Ki, was 994 ± 298 nM.
Regarding `CNCCCN1c2ccccc2CCc2ccccc21` [desipramine], in assay [1], affinity was put at a Ki of 334 ± 115 nM.
Regarding `CNCCC(Oc1ccc(C(F)(F)F)cc1)c1ccccc1` (stereo not drawn) [fluoxetine], the results for the “% Serotonin-positive NSMs” value in assay [2] (fluoxetine 0.22 mM 1 hr), in assay [2] (fluoxetine 0.29 mM 1 hr) and in assay [2] (fluoxetine 0.44 mM 1 hr) were 20%, 7% and 0%, respectively. Besides, in assay [3], the “concentration for paralysis, nose contraction, egg-laying relative to that blocking serotonin uptake in vivo and potentiating enhanced slowing” value is recorded as “at least 2.5 fold”. The inhibition constant Ki in assay [1] stood at 133 ± 90 nM.
For the compound `NCC(=O)O` [glycine], the “MOD-5-mediated uptake of radiolabeled neurotransmitter” value in assay [4] is listed as “inefficient at translocating”.
In assay [1], `Fc1ccc([C@@H]2CCNC[C@H]2COc2ccc3c(c2)OCO3)cc1` [paroxetine] gave an inhibitory constant (Ki) of 179 ± 64 nM.
